Patent publication US9724435B2 (The University of Mississippi, priority 2007, dated 2017)

Amino acid sequences for entries named in this document (tags omitted). A change or cut given only in a name is not applied to a line headed by its entry. Residues count along the entry.
UniProt Q63380, 1-617: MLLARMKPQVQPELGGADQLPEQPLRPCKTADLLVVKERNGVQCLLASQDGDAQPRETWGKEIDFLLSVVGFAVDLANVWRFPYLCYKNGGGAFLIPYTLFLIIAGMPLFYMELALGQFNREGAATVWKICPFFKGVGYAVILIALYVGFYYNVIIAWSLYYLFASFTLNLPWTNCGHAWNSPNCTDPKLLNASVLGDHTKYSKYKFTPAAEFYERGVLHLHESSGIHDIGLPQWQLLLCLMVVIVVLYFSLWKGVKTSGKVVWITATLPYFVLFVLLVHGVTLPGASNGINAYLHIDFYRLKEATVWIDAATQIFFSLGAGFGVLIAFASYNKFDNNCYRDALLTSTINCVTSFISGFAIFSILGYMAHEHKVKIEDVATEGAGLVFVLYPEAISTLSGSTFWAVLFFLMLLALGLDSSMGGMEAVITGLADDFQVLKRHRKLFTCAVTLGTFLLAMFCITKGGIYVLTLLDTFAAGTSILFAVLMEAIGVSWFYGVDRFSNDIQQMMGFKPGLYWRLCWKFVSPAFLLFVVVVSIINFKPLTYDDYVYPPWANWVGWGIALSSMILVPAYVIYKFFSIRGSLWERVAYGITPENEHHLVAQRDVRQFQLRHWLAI
UniProt Q9R0C9, whole entry: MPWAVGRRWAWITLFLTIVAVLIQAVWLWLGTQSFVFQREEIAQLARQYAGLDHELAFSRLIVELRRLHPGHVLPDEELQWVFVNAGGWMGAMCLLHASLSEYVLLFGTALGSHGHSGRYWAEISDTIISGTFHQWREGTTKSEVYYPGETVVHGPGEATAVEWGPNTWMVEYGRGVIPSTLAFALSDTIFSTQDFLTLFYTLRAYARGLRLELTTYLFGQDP
UniProt Q5U3Y7: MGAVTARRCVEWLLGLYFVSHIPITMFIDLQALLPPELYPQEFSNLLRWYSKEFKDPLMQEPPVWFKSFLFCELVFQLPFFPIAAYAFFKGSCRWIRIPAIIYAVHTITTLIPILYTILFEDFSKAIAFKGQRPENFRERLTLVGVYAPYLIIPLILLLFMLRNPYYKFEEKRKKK

target: norepinephrine transporters (Rattus norvegicus, UniProt Q63380); assay: Non-σ competition binding, [3H]nisoxetine; settings: read-out: NET Ki; rat brain homogenates

SMILES | Ki [nM]
CC(=O)c1ccc2c(c1)oc(=O)n2CCCCN1CCN(c2ccc(F)cc2)CC1.Cl.Cl [SN-79] | 177 ± 14

target: σ-1 (Rattus norvegicus (Rat), UniProt Q9R0C9); assay: σ-1 binding in rat brain homogenates, [3H](+)-pentazocine; settings: read-out: σ-1 (Ki)

SMILES | Ki [nM]
O=c1oc2cc([N+](=O)[O-])ccc2n1CCCCN1CCN(C2CCCCC2)CC1 [CM 188] | 11.1 ± 1.61
CC(F)c1ccc2c(c1)oc(=O)n2CCCCN1CCN(c2ccc(F)cc2)CC1 (stereo not shown) [SN-253] | 162 ± 11.4
CC(CCCN1C(=O)CSc2ccccc21)N1CCN(C2CCCCC2)CC1 (stereo not shown) [AZ-60] | 92.4 ± 9.76
CC(O)c1ccc2c(c1)oc(=O)n2CCCCN1CCN(c2ccc(F)cc2)CC1 (stereo not shown) [SN-249] | 609 ± 39.8
COc1cc2c(cc1OC)CN(CCCCn1c(=O)oc3ccccc31)CC2 [CM 295] | 74.3 ± 3.77

target: σ-2 (Rattus norvegicus (Rat), UniProt Q5U3Y7); assay: σ-2 binding in rat brain homogenates, [3H]DTG plus (+)-pentazocine; settings: read-out: σ-2 (Ki)

SMILES | Ki [nM]
O=c1oc2ccccc2n1CCCCN1CCC(c2ccccc2)CC1 [CM 172] | 17.2 ± 1.04
O=c1oc2ccccc2n1CCCCN1CC=C(c2ccc(Cl)cc2)CC1 [CM 165] | 14.4 ± 3.09
O=c1oc2ccccc2n1CCCCN1CCN(Cc2ccccc2)CC1 [CM 159] | 46.4 ± 12.6
O=c1oc2ccccc2n1CCCCN1CCN(CC2CCCCC2)CC1 [CM 171] | 13.9 ± 2.86
